The source of these data is ChEMBL document CHEMBL5149996, “Structure-Based Optimization and Discovery of M3258, a Specific Inhibitor of the Immunoproteasome Subunit LMP7 (β5i)” (J Med Chem, 2021).

Protein sequences, listed by entry. Tags and fused reporters are not part of them. Lines headed by an entry give the natural chain unless they say otherwise; changes in a name come on top.
UniProt P28074: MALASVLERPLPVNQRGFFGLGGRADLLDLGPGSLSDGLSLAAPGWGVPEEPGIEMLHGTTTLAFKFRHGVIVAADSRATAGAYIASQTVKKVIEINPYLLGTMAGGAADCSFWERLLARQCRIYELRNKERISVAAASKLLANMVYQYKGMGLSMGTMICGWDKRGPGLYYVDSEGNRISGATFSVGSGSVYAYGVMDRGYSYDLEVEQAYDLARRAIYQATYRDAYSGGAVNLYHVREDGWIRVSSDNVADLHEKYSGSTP

Molecules are shown by their SMILES.

In the assay the target is Proteasome Macropain subunit MB1 (Homo sapiens, UniProt P28074). Nature of the assay: Inhibition of human 20S proteasome beta5 subunit using Suc-LLVY-AMC as substrate preincubated for 2 hrs followed by substrate addition and measured after 1 hr by fluorescence intensity assay.

For `CC(C)C[C@H](NC(=O)CNC(=O)c1cc(Cl)ccc1Cl)B(O)O`, it took 5 nM to reach half-maximal inhibition (IC50).
